# Experimental data as given in PubChem BioAssay AID1439 (NMMLSC, 2008).
# The chains behind the UniProt entries cited, without tags or fusion partners.
# UniProt P09471, whole entry: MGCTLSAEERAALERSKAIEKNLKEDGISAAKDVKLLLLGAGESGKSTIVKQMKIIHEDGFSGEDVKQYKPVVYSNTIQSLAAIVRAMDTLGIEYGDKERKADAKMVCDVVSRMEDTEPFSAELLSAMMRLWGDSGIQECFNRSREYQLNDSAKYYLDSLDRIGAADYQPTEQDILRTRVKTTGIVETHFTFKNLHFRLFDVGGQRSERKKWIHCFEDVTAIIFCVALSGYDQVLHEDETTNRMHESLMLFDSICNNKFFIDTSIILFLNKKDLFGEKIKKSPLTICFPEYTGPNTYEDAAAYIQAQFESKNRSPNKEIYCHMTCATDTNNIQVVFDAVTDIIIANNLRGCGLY
# The list shows a part of the results, in another mix than the full data. Records with an inconclusive call do not appear. Activity calls are given as the source filed them. Cut-off read from the data, not from the text of the source: active = binding response below about 49% or above about 150%; inconclusive = no clear call, values can overlap the other calls; inactive = in between.
# Target: Guanine nucleotide-binding protein G(o) subunit alpha (Homo sapiens) (UniProt P09471)
# Experiment: RGS7-Galphao binding modulators, primary screen, biochemical, multiplexed bead flow cytometry (AID 1439);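 note: fluorescent Galphao held in activated GDP-AlF4 state binding bead-coupled RGS7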
# Conditions: at 10 µM, actives lie on both sides
row,SMILES,binding response (% of control)
1,CCOC(=O)c1ccc(NP(C)(=O)Oc2ccc(Cl)cc2)cc1 (stereo not drawn),inactive: 102%
2,CP(=O)(OC12CC3CC(CC(C3)C1)C2)OC12CC3CC(CC(C3)C1)C2,inactive: 101%
3,COc1ccccc1OP(C)(=O)Nc1ccccc1Br (stereo not drawn),inactive: 105%
4,CC(C)(C)c1ccc(OP(C)(=O)O)cc1,inactive: 109%
5,CP(=O)(Nc1ccc(Cl)cc1)Oc1ccc(F)cc1 (stereo not drawn),inactive: 102%
6,CN(C)C(=O)c1c([N+](=O)[O-])cc([N+](=O)[O-])cc1[N+](=O)[O-],inactive: 93.9%
7,COc1ccc(OP(C)(=O)Nc2ccc(Br)cc2)cc1 (stereo not drawn),inactive: 96.3%
8,CCN(CC)CC(O)COC(=O)C(O)(c1ccccc1)C1CCCCC1 (stereo not drawn),inactive: 101%
9,CP(=O)(Oc1ccccc1)N1CCOC1=O (stereo not drawn),inactive: 101%
10,Cc1c(NP(C)(=O)Oc2ccc(C(C)C)cc2)c(=O)n(-c2ccccc2)n1C (stereo not drawn),inactive: 94.2%
11,COc1ccccc1OP(C)(=O)Nc1ccc(C)cc1C (stereo not drawn),inactive: 98.7%
12,CP(=O)(Nc1ccccn1)Oc1ccccc1 (stereo not drawn),inactive: 102%
13,CCc1ccc(OP(C)(=O)O)cc1,inactive: 100%
14,COc1ccc(OP(C)(=O)Nc2ccccn2)cc1 (stereo not drawn),inactive: 114%
15,CN(C)CCOC(=O)C(O)(c1ccccc1)C1CCCC1 (stereo not drawn),inactive: 106%
16,Cc1nc2ccc3ccccc3c2o1.O=[N+]([O-])c1cc([N+](=O)[O-])c(O)c([N+](=O)[O-])c1,inactive: 100%
17,Cc1cc(C)cc(OP(C)(=O)Nc2cccc(C(F)(F)F)c2)c1 (stereo not drawn),inactive: 99.9%
18,COc1ccccc1OP(C)(=O)Nc1ccc(C)c(C)c1 (stereo not drawn),inactive: 101%
19,COc1ccc(OP(C)(=O)Nc2ccccc2Br)cc1 (stereo not drawn),inactive: 97.6%
20,CP(=O)(Nc1ccccc1)Oc1ccc(F)cc1 (stereo not drawn),inactive: 99%

row,SMILES,binding response (% of control)
1,CCOC(=O)c1ccc(NP(C)(=O)Oc2ccc(F)cc2)cc1 (stereo not drawn),inactive: 96.6%
2,COc1ccc(OP(C)(=O)Nc2ccc(SC(F)(F)F)cc2)cc1 (stereo not drawn),inactive: 103%
3,O=C(OCCN1CCN(CCOCc2ccccc2)CC1)C(O)(c1ccccc1)c1ccccc1,inactive: 100%
4,CP(=O)(Nc1ccccc1F)Oc1ccccc1 (stereo not drawn),inactive: 89.3%
5,CC(C)c1ccc(OP(C)(=O)Nc2ccc(SC(F)(F)F)cc2)cc1 (stereo not drawn),inactive: 99.5%
6,CP(=O)(Nc1ccc2c(c1)OCCO2)Oc1ccccc1 (stereo not drawn),inactive: 88.4%
7,Cc1ccccc1NP(C)(=O)Nc1ccccc1C,inactive: 99.5%
8,CCOP(C)(=S)SCC(=O)NC(C)(CC)C(=O)O (stereo not drawn),inactive: 102%
9,COc1ccc(OP(C)(=O)Nc2cccc(Br)c2)cc1 (stereo not drawn),inactive: 97.8%
10,CN(C)CCOC(=O)C(O)(c1ccccc1)C1CCCCC1 (stereo not drawn),inactive: 101%
11,COc1ccc(NP(C)(=O)Oc2ccccc2OC)cc1 (stereo not drawn),inactive: 104%
12,CN1CCCCC1COC(=O)C1(O)c2ccccc2CCc2ccccc21 (stereo not drawn),inactive: 100%
13,COc1ccccc1OP(C)(=O)Nc1c(C)cccc1C (stereo not drawn),inactive: 96.8%
14,CCCOc1ccc(NP(C)(=O)Oc2ccc(Cl)cc2)cc1 (stereo not drawn),inactive: 104%
15,CP(=O)(Nc1ccc(SC(F)(F)F)cc1)Oc1ccccc1 (stereo not drawn),inactive: 96.7%
16,Cc1nc2ccc3ccccc3c2s1.O=[N+]([O-])c1cc([N+](=O)[O-])c(O)c([N+](=O)[O-])c1,inactive: 96.2%
17,O=[N+]([O-])c1cc([N+](=O)[O-])c(-n2nnc3ccccc32)c([N+](=O)[O-])c1,inactive: 78.5%
18,Cc1ccc(C)c(NP(C)(=O)Oc2ccccc2)c1 (stereo not drawn),inactive: 86.3%
19,Cc1cc(C)cc(OP(C)(=O)Nc2ccccn2)c1 (stereo not drawn),inactive: 101%
20,CCOC(=O)c1ccc(NP(C)(=O)Oc2cc(C)cc(C)c2)cc1 (stereo not drawn),inactive: 107%

row,SMILES,binding response (% of control)
1,Cc1cc(C)cc(OP(C)(=O)Nc2ccc(C)cc2C)c1 (stereo not drawn),inactive: 103%
2,CC1=NCCc2c1[nH]c1ccccc21.O=[N+]([O-])c1cc([N+](=O)[O-])c(O)c([N+](=O)[O-])c1,inactive: 115%
3,Cc1ccc(NP(C)(=O)Oc2ccccc2)c(C)c1 (stereo not drawn),inactive: 102%
4,COc1ccccc1OP(C)(=O)Nc1ccc(C)cc1 (stereo not drawn),inactive: 94.3%
5,CCOC(=O)c1ccc(NP(C)(=O)Oc2ccccc2)cc1 (stereo not drawn),inactive: 105%
6,COc1ccc(OP(C)(=O)Nc2cccc(F)c2)cc1 (stereo not drawn),inactive: 97.3%
7,COc1ccccc1OP(C)(=O)Nc1cc(Cl)ccc1C (stereo not drawn),inactive: 101%
8,CC(C)(C)c1ccc(OP(C)(=O)Nc2ccc(SC(F)(F)F)cc2)cc1 (stereo not drawn),inactive: 100%
9,CCN(CC)CCCOC(=O)C(O)(c1ccccc1)c1ccccc1,inactive: 96.1%
10,CCOC(=O)c1ccc(NP(C)(=O)Oc2ccc(OC)cc2)cc1 (stereo not drawn),inactive: 106%
11,CCOP(C)(=S)SCC(=O)NC(C)C(=O)O (stereo not drawn),inactive: 102%
12,CP(=O)(Nc1ccccn1)Oc1ccc(Cl)cc1 (stereo not drawn),inactive: 99.3%
13,Cc1cccc(C)c1OP(C)(=O)Nc1ccc(SC(F)(F)F)cc1 (stereo not drawn),inactive: 95.3%
14,Cc1cc(C)cc(OP(C)(=O)Nc2ccc(SC(F)(F)F)cc2)c1 (stereo not drawn),inactive: 104%
15,CP(=O)(NC(=O)Nc1ccccc1)Oc1ccccc1 (stereo not drawn),inactive: 96.4%
16,CP(=S)(Nn1cnnc1)Oc1ccccc1 (stereo not drawn),inactive: 114%
17,CP(=O)(Nc1ccccc1Br)Oc1ccccc1 (stereo not drawn),inactive: 103%
18,COc1ccccc1OP(C)(=O)Nc1ccccc1 (stereo not drawn),inactive: 110%
